Source: PubChem BioAssay (NCI)
Values joined by “and” are separate entries in the source; they are usually repeats but may differ in a detail not shown here. Identical values can stand only once. Only a part is listed here, and it is no random draw. Some tests of the compounds listed are not included; inactive here does not mean inactive elsewhere.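 Testing used 96-well plates and a 48-hour single-concentration exposure. Example: -40 means 40% of the starting cells died.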 Active and inactive are the calls of the source. The calls were made as follows: active = growth percent below 10; inactive = the rest.

Columns and labels:
Assay in all cases: NCI-60 one-dose screen, 48 h (100 = growth as untreated, 0 = no growth, -100 = all killed)
Conditions in all cases: 10 µM
[1] = test system: DU-145 prostate
[2] = test system: K-562 leukemia
[3] = test system: MALME-3M melanoma
[4] = test system: MDA-MB-231 breast
[5] = test system: RXF 393 renal
[6] = test system: SF-268 CNS
[7] = test system: SF-295 CNS
[8] = test system: SF-539 CNS
[9] = test system: UACC-257 melanoma
[10] = test system: M14 melanoma

Measured: growth

CN(CCBr)CCBr
inactive: [1] 102% | [2] 104% | [3] 118% | [4] 111% | [5] 103% | [6] 102% | [7] 99.8% | [8] 93.9% | [9] 97% | [10] 101%

COc1ccc(N=C=S)cc1CN(CCCl)CCCl
inactive: [1] 69.7% | [2] 65.6% | [3] 93.4% | [4] 87.8% | [5] 83% | [6] 66.6% | [7] 85.1% | [8] 74.4% | [9] 78.7% | [10] 65.9%

ClCCN(CCCl)C1c2ccccc2-c2ccccc21
inactive: [1] 97.5% | [2] 79.5% | [3] 101% | [4] 98.9% | [5] 103% | [6] 92.9% | [7] 91.9% | [8] 90.3% | [9] 88.1% | [10] 100%

ClCCCCCC(CCl)NCCCl (stereo not drawn)
inactive: [1] 84.5% | [2] 86.7% | [3] 93.3% | [4] 108% | [5] 108% | [6] 71.8% | [7] 86.3% | [8] 81% | [9] 94.7% | [10] 95.1%

COc1ccc([N+](=O)[O-])cc1CN(CCCl)CCCl
inactive: [1] 109% | [2] 109% | [3] 109% | [4] 95.8% | [5] 109% | [6] 101% | [7] 109% | [8] 94.9% | [10] 107%

ClCCN(CCCl)Cc1ccc(Cl)c(Cl)c1
inactive: [1] 105% | [2] 87.3% | [3] 99.1% | [4] 108% | [5] 104% | [6] 99.3% | [7] 96.8% | [8] 101% | [9] 95.2% | [10] 97.4%

CC(=O)CI
inactive: [1] 113% | [2] 114% | [4] 105% | [5] 104% | [6] 104% | [7] 99.7% | [8] 102% | [9] 102% | [10] 94.5%

CN(C)CCOC(=O)C(O)(c1ccccc1)c1ccccc1
inactive: [1] 111% | [2] 104% | [3] 82.1% | [4] 107% | [5] 115% | [6] 110% | [7] 109% | [8] 96.4% | [9] 109% | [10] 109%

CC[N+](C)(C)Cc1cccc(Cc2ccccc2)c1OC(=O)N(C)C
inactive: [1] 113% | [2] 89.8% | [3] 103% | [4] 100% | [6] 99.6% | [7] 97.8% | [8] 101% | [9] 93.6% | [10] 101%

N#CC(C#N)=Cc1cccc(Br)c1
inactive: [1] 106% | [2] 101% | [3] 115% | [4] 110% | [5] 111% | [6] 102% | [7] 95.7% | [8] 100% | [9] 108% | [10] 100%

CC(C)(C)N(CCCl)CCCl
inactive: [1] 109% | [2] 107% | [3] 107% | [4] 113% | [5] 102% | [6] 113% | [8] 95.2% | [9] 84.8% | [10] 112%

CCCN(CCCl)CCCl
inactive: [1] 117% | [2] 123% | [3] 111% | [4] 110% | [5] 102% | [6] 110% | [8] 102% | [9] 95.1% | [10] 103%

CCOc1ccc([N+](=O)[O-])cc1CN(CCCl)CCCl
inactive: [1] 104% | [2] 91.5% | [3] 91.8% | [4] 93.2% | [5] 104% | [6] 98.9% | [7] 101% | [8] 95.7% | [10] 100%

N#CC(C#N)=Cc1ccc(Br)cc1
inactive: [1] 106% and 103% | [2] 94.4% and 93.5% | [3] 112% and 98.8% | [4] 105% and 106% | [5] 107% and 101% | [6] 98.6% and 109% | [7] 105% and 109% | [8] 112% and 118% | [9] 101% and 103% | [10] 99.1% and 105%

Fc1cccc(CN(CCCl)CCCl)c1
inactive: [1] 101% | [2] 99% | [3] 85.8% | [4] 111% | [5] 105% | [6] 95.4% | [7] 95.5% | [8] 91.7% | [9] 95.3% | [10] 88%

ClCCN(CCCl)Cc1ccsc1Br
inactive: [1] 90% | [2] 69.8% | [4] 87.8% | [5] 95.3% | [6] 79.4% | [7] 92.6% | [8] 87.7% | [9] 83.1% | [10] 93.1%

Cc1cc2nc(CN(CCCl)CCCl)[nH]c2cc1C
inactive: [1] 99.4% | [2] 94.1% | [3] 96.8% | [4] 87.1% | [6] 74.7% | [7] 89.2% | [8] 72.6% | [9] 87.5% | [10] 91.9%

ClCCN(CCCl)Cc1cc(Cl)cc(Cl)c1
inactive: [1] 74.2% | [2] 76.1% | [3] 77.4% | [4] 95.4% | [5] 84.5% | [6] 81.7% | [7] 37.1% | [8] 62.6% | [9] 70.7% | [10] 75.9%

ClCCN(CCCl)C1CCCCC1
inactive: [1] 97.6% | [2] 101% | [3] 99.5% | [4] 106% | [5] 107% | [6] 96.2% | [7] 101% | [8] 93.9% | [9] 106% | [10] 98.9%

BrCCN(CCBr)Cc1ccccc1
inactive: [1] 113% | [2] 105% | [3] 112% | [4] 119% | [5] 108% | [6] 97.1% | [7] 99.4% | [8] 98% | [9] 112% | [10] 112%

COCc1c(CN(CCCl)CCCl)cnc(C)c1O
inactive: [1] 110% | [2] 102% | [3] 98.1% | [4] 109% | [5] 99.1% | [6] 102% | [7] 107% | [8] 89.3% | [9] 107% | [10] 96.4%

CCNCCCl
inactive: [1] 96.3% | [2] 115% | [3] 122% | [4] 110% | [5] 115% | [6] 109% | [8] 94.1% | [9] 105% | [10] 105%

N#CC(C#N)=Cc1ccccc1Cl
inactive: [1] 102% | [3] 91.6% | [4] 107% | [5] 105% | [6] 108% | [7] 98.7% | [8] 113% | [9] 105% | [10] 107%

O=C(OCCN1CCCC1)C(O)(c1ccccc1)c1ccccc1
inactive: [1] 116% | [2] 129% | [4] 103% | [5] 122% | [6] 99.1% | [7] 102% | [8] 105% | [10] 96.1%
